According to ChEMBL document CHEMBL4725359, “Development of Potent PfCLK3 Inhibitors Based on TCMDC-135051 as a New Class of Antimalarials” (J Med Chem, 2020):

Legend:
Plasmodium falciparum [1] = assay: microbe, parasite or virus in culture
Plasmodium falciparum [2] = assay: Antimalarial activity against chloroquine-sensitive synchronized ring stage of Plasmodium falciparum 3D7 incubated for 48 to 52 hrs by SYBR green 1 dye based assay; assay type: functional, organism-based

CCN(CC)Cc1ccc(OC)c(-c2cc3c(-c4ccc(C(=O)O)c(C(C)C)c4)ccnc3[nH]2)c1
EC50 (Plasmodium falciparum [1]; 3D7): 1.81 µM | EC50 (Plasmodium falciparum [1]; 3D7, read-out: pEC50 (converted)): 1.82 µM | EC50 (Plasmodium falciparum [2]): 0.2 µM
